The values below are quoted from earlier work in paper PMC9456106, “PET Probes for Preclinical Imaging of GRPR-Positive Prostate Cancer: Comparative Preclinical Study of [^68Ga]Ga-NODAGA-AMBA and [^44Sc]Sc-NODAGA-AMBA” (International Journal of Molecular Sciences, 2022).

The conditions of this data set: cited from earlier work.

In the case of “^99mTc-GGC-(Ornithine)3-BN(2-14) [[^99mTc]Tc-BN-O]”, the “tracer accumulation in the heart, lung, muscle, and spleen” value is recorded as “below 6 % ID/g”.
